Results from ChEMBL document CHEMBL5143713, “Multitarget, Selective Compound Design Yields Potent Inhibitors of a Kinetoplastid Pteridine Reductase 1” (J Med Chem, 2022).

Molecular target: T1, Pteridine reductase 1 (Leishmania major, UniProt Q01782)
T1 sequence (Q01782 whole entry): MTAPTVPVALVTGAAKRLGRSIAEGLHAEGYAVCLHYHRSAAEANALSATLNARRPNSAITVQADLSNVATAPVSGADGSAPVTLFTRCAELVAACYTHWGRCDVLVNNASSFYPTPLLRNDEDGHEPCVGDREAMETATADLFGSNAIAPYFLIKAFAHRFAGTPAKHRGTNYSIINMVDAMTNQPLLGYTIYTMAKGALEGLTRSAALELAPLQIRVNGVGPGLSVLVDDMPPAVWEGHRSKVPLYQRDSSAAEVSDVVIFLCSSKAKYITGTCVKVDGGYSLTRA
Assay: Inhibition of recombinant Leishmania major PTR1 expressed in Escherichia coli BL21 (DE3) cells using H2B as substrate in presence of cytochrome c and NADPH by envision multilabel reader

Compound | IC50
COC(=O)C1CCN(C(=O)c2ccc(N(C)Cc3cnc4nc(N)nc(N)c4n3)cc2)CC1 | 980 nM
COC(=O)C1CCN(C(=O)c2ccc(N(CCO)Cc3cnc4nc(N)nc(N)c4n3)cc2)CC1 | 4720 nM
